Ab-95 light chain CDR variants: yeast mating affinities

Binding partner: SARS-CoV-2 spike HR2 peptide, sequence PDVDLGDISGINAS.

Ab-95 is the parent antibody, in scFv form: VH, then a (GGGGS)3 linker, then VL. The heavy chain is unchanged in all variants.
VH: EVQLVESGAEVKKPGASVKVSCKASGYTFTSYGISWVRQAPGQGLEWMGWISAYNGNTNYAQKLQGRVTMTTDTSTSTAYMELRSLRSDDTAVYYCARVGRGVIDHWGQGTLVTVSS
VL: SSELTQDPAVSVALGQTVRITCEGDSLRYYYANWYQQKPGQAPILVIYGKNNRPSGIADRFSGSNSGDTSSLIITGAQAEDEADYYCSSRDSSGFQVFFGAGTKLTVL

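The parent was found by panning a naive human phage display library on the peptide. In library AAYL52, one, two or three CDR residues were substituted; doubles and triples were drawn at random. In AlphaSeq, yeast of one mating type display the scFv and yeast of the other type display the target. Mating (16 h, 30 °C) was followed by selection of diploids and sequencing of their barcodes. The ratio of observed to expected reads was calibrated, replicate by replicate, on BCL2-family standards whose Kd was known from biolayer interferometry. Mating was done three times.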

Each variant is given by its three light chain CDRs, as the data file delimits them; those of the parent are EGDSLRYYYAN, GKNNRPS, SSRDSSGFQVF.
Every variant below is changed at G94 of the VL (sequential numbering).
Each Kd is an estimate from the mating assay, the geometric mean of the replicates in which the pair was seen; lower is stronger.
An entry "no signal" has no value in the source: the pair was not observed among the diploids in any replicate. This suggests poor binding but is not conclusive.

- EGTSLRYYYEN | GKNNRPS | SSRDSSYFQVF: 8.1 µM (1 of 3 replicates)
- EGDSLRYYYAN | GKNGRPS | SSRDSSWLQVF: 5.6 µM (3 of 3 replicates)
- EGDSLRYIYAN | GKNNRPS | SSMDSSAFQVF: no signal (0 of 3 replicates)
- EGDSLRYYYAN | GKNNRPS | SMRDSSMFQKF: 170 nM (2 of 3 replicates)
- EGDSLRYYYAN | GWNNRPS | SSRNSSLFQVF: 23 µM (3 of 3 replicates)
- EGDSLRYKYAN | GKNNRPS | SSLDSSIFQVF: 49 nM (3 of 3 replicates)
- EGDSLRYYYAN | GKNIRPS | SSRDSSKFQCF: no signal (0 of 3 replicates)
- EGDSLRYYYAN | GKNNRPS | SGRDSSWFQVF: 390 nM (3 of 3 replicates)
- EGDSLRYVYAN | GKNNRPS | SSRDSSKFQVA: 1.1 µM (3 of 3 replicates)
- EGDSLRYYYAN | QKNNRPS | SSRDSSSFHVF: 71 µM (2 of 3 replicates)
- EGDSLRYYYAN | GINNRIS | SSRDSSWFQVF: 11 µM (1 of 3 replicates)
- EGDSARYYYEN | GKNNRPS | SSRDSSWFQVF: 4.7 µM (1 of 3 replicates)
- EGLSLRYYYAN | GKNNRPS | NSRDSSMFQVF: 870 nM (3 of 3 replicates)
- EGTCLRYYYAN | GKNNRPS | SSRDSSNFQVF: 2.5 µM (2 of 3 replicates)
- EGDSLRVYYAN | GKNNRPS | SSRDSSCFQVF: 2.5 µM (3 of 3 replicates)
- EGDSLRYYYAN | GKNNRPL | SSHDSSNFQVF: 1.9 µM (3 of 3 replicates)
- EGDSLMYYYAN | GKNNRPS | SKRDSSCFQVF: no signal (0 of 3 replicates)
- EFDSLRYYYAN | GKNNRTS | SSRDSSLFQVF: 2.5 µM (3 of 3 replicates)
- EGDSLRYYSAN | GKNNRPS | SSRDSSPFQVF: 26 nM (3 of 3 replicates)
- EGDSLRYIYAP | GKNNRPS | SSRDSSAFQVF: 440 µM (1 of 3 replicates)
- EGDSLRYYYAN | GKNNLPS | TSRDSSLFQVF: no signal (0 of 3 replicates)
- EGDSLRYYYAP | GKNNRPS | SSRDSSAFQVF: no signal (0 of 3 replicates)
- EGKSLRYYYAN | GKNNRPS | SSRDSSAFQDF: 96 nM (3 of 3 replicates)
- EGDSLWYYYAN | GKNRRPS | SSRDSSVFQVF: no signal (0 of 3 replicates)
- EGDSLRYYYAS | GKNNQPS | SSRDSSPFQVF: 20 µM (3 of 3 replicates)
- EGDSLRYYYAN | GKNNRDG | SSRDSSTFQVF: 21 µM (2 of 3 replicates)
- EGGSLRYYYAN | GPNNRPS | SSRDSSLFQVF: 7.9 µM (3 of 3 replicates)
- EGDSNYYYYAN | GKNNRPS | SSRDSSAFQVF: no signal (0 of 3 replicates)
- EGDSLRYYYAN | GKNNQPS | SSRDSSFFQQF: 4.5 µM (2 of 3 replicates)
- EGDSLRYYYAN | EKNNRPS | SSYDSSRFQVF: no signal (0 of 3 replicates)
- EGDSLRYYYAN | GKNNRPN | SSRISSYFQVF: 1.9 µM (3 of 3 replicates)
- EGDSLRNYYAN | GKNNRPS | SSRDSSPYQVF: 24 µM (1 of 3 replicates)
- EGDSLRYYYAN | GKNNRPS | SSCDSSEFQCF: no signal (0 of 3 replicates)
- EGDSLRYYYAN | GKINRPS | KSRDSSYFQVF: 6.5 µM (1 of 3 replicates)
- EGDALRYYYAN | GKNNRPS | SSSDSSNFQVF: 110 nM (3 of 3 replicates)
- EGDSLRYYYAN | GKNNRPS | SERDSSKFEVF: 11 µM (2 of 3 replicates)
- EGDSLRYYHAN | GKNNRPS | SSRDSSIFQVF: 320 nM (3 of 3 replicates)
- EADSLRYYYAN | GKNNRPS | PSRDSSFFQVF: 20 µM (1 of 3 replicates)
- IGDSLRYYYAN | GKNGRPS | SSRDSSKFQVF: 4.1 µM (1 of 3 replicates)
- EGWSLRYYNAN | GKNNRPS | SSRDSSWFQVF: 390 nM (3 of 3 replicates)
- EGGSLRYYYAN | GKNNRPS | SSRDSSVHQVF: 540 nM (3 of 3 replicates)

Excerpt, the final 2 entries:

{"CDR-L1": "EGWSLRYYNAN", "CDR-L2": "GKNNRPS", "CDR-L3": "SSRDSSWFQVF", "Kd": "390 nM", "detected": "3/3"}
{"CDR-L1": "EGGSLRYYYAN", "CDR-L2": "GKNNRPS", "CDR-L3": "SSRDSSVHQVF", "Kd": "540 nM", "detected": "3/3"}

Parent in this assay: reference entry 200 nM, copy in this library 180 nM.
Three control strains display no target. For library AAYL52, 28% of the pairings with them gave a signal, with a median of 8.2 µM and one signal in twenty below 800 nM, so weak values seen in few replicates may be background.

Data: MIT Lincoln Laboratory AlphaSeq set, Engelhart et al. 2022, doi:10.1038/s41597-022-01779-4, as distributed in FLAb.